As usually defined, the IC50 is the concentration that inhibits the measured activity by half.

Experimental findings from patent publication US5684034A, “1H-indole-3-acetamide sPLA2 inhibitors” (Eli Lilly and Company, priority 1995, dated 1997) are described below.

In the assay the target is T1, recombinant human secreted phospholipase A2 (Homo sapiens, UniProt P14555).
T1 sequence (P14555 21-144): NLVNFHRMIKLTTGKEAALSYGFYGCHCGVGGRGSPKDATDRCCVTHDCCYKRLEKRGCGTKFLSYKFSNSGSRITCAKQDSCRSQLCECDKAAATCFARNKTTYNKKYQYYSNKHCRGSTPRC
Nature of the assay: Human secreted phospholipase A2 inhibition test (chromogenic assay, diheptanoyl thio-PC substrate). The format is biochemical. The following applies: pH 7.5, 40° C., 30 minutes, 405 nm; read-out: Inhibition of human secreted PLA2 IC50 ± mean deviation (3-5 tests). On the procedure: The following chromogenic assay procedure was used to identify and evaluate inhibitors of recombinant human secreted phospholipase A2. The assay described herein has been adapted for high volume screening using 96 well microtiter plates.
A measured volume of racetic dipheptanoyl thio PC supplied in chloroform at a concentration of 100 mg/ml is taken to dryness and redissolved in 10 millimolar TRITON X-100™ nonionic detergent aqueous solution. Reaction Buffer is added to the solution, then DTNB to give the Reaction Mixture.
The reaction mixture thus obtained contains 1 mM diheptanoly thio-PC substrate, 0.29 mm Triton X-100™ detergent, and 0.12 mm DTMB in a buffered aqueous solution at pH 7.5.
1. Add 0.2 ml reaction mixture to all wells;
2. Add 10 ul test compound (or solvent blank) to appropriate wells, mix 20 seconds:
3. Add 50 nanograms of sPLA2 (10 microliters) to appropriate wells;
4. incubate plate at 40° C. for 30 minutes;
All compounds were tested in triplicate. […] Each sample was titrated in triplicate and result values were averaged for plotting and calculation of IC50 values. […] Each IC50 value was determined three times.

For `Cc1c(CC(N)=O)c2c(OCCCC(=O)O)cccc2n1Cc1ccccc1` [Example 38, 4-[[3-(2-Amino-2-oxoethyl)-2-methyl-1-(phenylmethyl)-1H-indol-4-yl]oxy]butanoic acid], the IC50 turned out to be 400 ± 70 nM.
